# Reference: patent US8889153B2, “Combination of immunomodulator and anti-pathogenic agent” (priority 2008, dated 2014)
# Tested on: Punta Toro virus - Adames strain
# Type: in vivo, Punta Toro virus (host: C57BL/6 mice)
compound,measurement,setting,value
"NC(=O)c1ncn([C@@H]2O[C@H](CO)[C@@H](O)[C@H]2O)n1 [Ribavirin, 1-(β-D-Ribofuranosyl)-1H-1,2,4-triazol-3-carboxamide, reference compound]",Number of survivors,"Ribavirin 50 mg/kg/day, 2 × day × 5 days i.p., start 4 h prior to infection, 21 days",10/10***
same,Hepatic parameters (ALT) ALT ± Standard Deviation,"mouse, in vivo",22 ± 23 UI/liter
same,Parameters of Hepatic Damage (Score) Score ± Standard Deviation,"mouse, in vivo",1.4 ± 0.5
same,"Percentage of animals with detectable viruses, Liver","mouse, in vivo",<2.8 (0) %
same,"Percentage of animals with detectable viruses, Serum","mouse, in vivo",<2.8* (0) %
same,"Viral load ± Standard deviation, Liver","mouse, in vivo",<2.8 (0)
same,"Viral load ± Standard deviation, Serum","mouse, in vivo",<2.8* (0)

# Marks after values point to notes of the source that are not given here.
